Article PMC6844113

Tested on: Nc1ncnc2c1ncn2[C@@H]1O[C@H](COP(=O)(O)OP(=O)(O)OP(=O)(O)O)[C@@H](O)[C@H]1O
Experiment: purified protein
Details: Mg2+ ATP binding to gyrase subunit B

E. coli DNA gyrase subunit B (Escherichia coli K-12)
Km: 330 ± 140 µM
